The values that follow come from patent US8048925B2, “Bis(thio-hydrazide amide) salts for treatment of cancers” (Synta Pharmaceuticals Corp., priority 2004, dated 2011).

This data set in a line: Solubility in water, saturated suspension filtered and measured by HPLC. The format is physicochemical. As to conditions: shaken and sonicated about 5-10 min at about 50° C., filtered 0.2 μm. Here is the method: A compound was weighed and water was added to the compound such that the resulting concentration of the compound was about 100 mg/mL. The mixture was then shaken well and sonicated (about 5-10 min at about 50° C.). If the added amounts of the compound were totally solubilized, more amounts of the compound were added to the solution and the mixture was shaken well and sonicated until a suspension was achieved. The suspension was then filtered through a 0.2 μm filter. The filtered solution was diluted with DMSO. Then the mixture was analyzed by HPLC to determine the concentration of the compound.
The HPLC system consisted of the HP 1100 Model (Agilent, Wilmington, Del.) equipped with a model 1100 quaternary pump, a model 1100 autosampler, a model 1100 Diode-Array Detector for UV detection at 280 nm. HPLC analysis was performed using a gradient mobile phase consisting of acetonitrile-water containing 0.1% formic acid. Mobile phases were degassed and filtered through a solvent filtration apparatus and pumped at a constant rate of 1.0 mL/min. Separation was made on an XTerra MS C18 analytical column, 4.6 mm i.d.×150 mm, (Waters Corp., Milford, Mass., USA) fitted with a pre-column filter (XTerra MS C18, 3.9 mm×20 mm). The column was maintained at 40° C.

On to “Calcium; 2-(N′-methyl-N′-thiobenzoyl-hydrazinocarbonyl)-1-(methyl-thiobenzoyl-hydrazono)-ethanolate [Compound 9]”, for which the Solubility in water amounted to 18.9 mg/mL.
